# Measured values published in PMC2704374, “A Multidrug ABC Transporter with a Taste for Salt” (PLoS ONE, 2009).
# System: Cl
# Assay: purified protein
# Conditions: labelled compound; deltapH-driven transport (interior alkaline), pH 7.6 in / pH 6.8 out; no ATP
substance,measurement,value
LmrA (Lactococcus cremoris subsp. cremoris MG1363),Km,17.9 ± 3.7 µM
